By UniProt entry, the sequences of proteins in these tests, tags left out. Where a name states a change or a piece, a line headed by the entry shows the natural chain unless it says otherwise.
UniProt P51178: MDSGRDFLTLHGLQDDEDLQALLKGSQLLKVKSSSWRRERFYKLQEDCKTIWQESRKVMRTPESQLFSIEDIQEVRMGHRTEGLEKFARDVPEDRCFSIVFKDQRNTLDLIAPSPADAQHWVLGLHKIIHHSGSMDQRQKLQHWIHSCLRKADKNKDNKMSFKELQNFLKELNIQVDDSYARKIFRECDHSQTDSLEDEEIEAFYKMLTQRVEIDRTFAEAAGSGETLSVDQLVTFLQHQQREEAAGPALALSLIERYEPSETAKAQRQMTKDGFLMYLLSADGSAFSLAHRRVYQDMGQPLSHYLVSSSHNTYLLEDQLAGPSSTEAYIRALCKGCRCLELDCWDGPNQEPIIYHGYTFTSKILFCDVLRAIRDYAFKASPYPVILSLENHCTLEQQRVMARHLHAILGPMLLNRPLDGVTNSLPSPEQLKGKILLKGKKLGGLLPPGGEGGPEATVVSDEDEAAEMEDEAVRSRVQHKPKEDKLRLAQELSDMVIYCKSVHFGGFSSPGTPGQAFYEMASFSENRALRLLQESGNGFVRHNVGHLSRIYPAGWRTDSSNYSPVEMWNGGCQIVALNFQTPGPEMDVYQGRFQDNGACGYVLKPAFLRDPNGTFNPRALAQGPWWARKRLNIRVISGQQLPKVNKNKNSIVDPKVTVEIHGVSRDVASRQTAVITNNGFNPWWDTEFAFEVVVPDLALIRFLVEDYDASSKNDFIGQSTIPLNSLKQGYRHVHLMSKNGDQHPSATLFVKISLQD

In patent US20200123190A1:

What was measured:
Phospholipase CD1 = Phospholipase CD1 (Homo sapiens, UniProt P51178); settings: Phospholipase CD1, PBS, 37° C., about 1 hour

Substance	Distribution coefficient: log P(n-octanol/PBS)	Change in HPLC pattern (Phospholipase CD1)
O,O′— Di(4-fluoro)benzyl 5-fluoro-2′-deoxy-5′-cytidylate [Compound (4)]	2.196	–
O,′-Di (4-fluoro)benzyl 2′-deoxy-2′,2′-difluoro-5′-cytidylate [Compound (1)]	–	Almost no change in the peak of the starting
